# Antibody variant affinities, Ab-14 heavy chain, assay B

Target peptide (SARS-CoV-2 spike, HR2 region): PDVDLGDISGINAS

Ab-14 is the parent antibody, in scFv form: VH, then a 15-residue (Gly4Ser)3 linker, then VL. The light chain is unchanged in all variants.
VH: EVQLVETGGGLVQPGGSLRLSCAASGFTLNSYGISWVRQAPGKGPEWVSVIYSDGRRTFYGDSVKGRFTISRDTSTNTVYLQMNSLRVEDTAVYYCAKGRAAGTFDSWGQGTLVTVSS
VL: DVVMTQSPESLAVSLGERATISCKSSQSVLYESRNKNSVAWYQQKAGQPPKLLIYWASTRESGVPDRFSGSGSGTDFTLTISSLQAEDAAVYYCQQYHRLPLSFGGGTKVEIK

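These sequences belong to a second round, designed from the earlier measurements on random variants of the parent. Their group label is 14H_GPLM_HC (GPLM: also part of the Gaussian process libraries; HC: hill climbing; a sequence that several methods proposed may carry one label only). Affinity was read by AlphaSeq, a pooled yeast mating assay with surface-displayed partners. Binding brings cells together so that they mate, and sequencing counts the barcode pairs among the diploids. Each replicate has its own calibration line, from reference interactions of the BCL2 family. There are six technical replicates.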

Each variant is given by its three heavy chain CDRs, as the data file delimits them; those of the parent are GFTLNSYGIS, VIYSDGRRTFYGDSVK, GRAAGTFDS.
Scale: log10 of Kd in nM, estimated from mating counts; low values are strong binders.
"nd" means that the variant was in the library but no mating with the target was seen in that replicate; the authors take this as a sign of poor binding, and no number exists.
Nonspecific signal, from three strains lacking the peptide, appeared in 1% of pairings of all heavy chain designs, centred on 2.08 (5% of these signals below 0.84); values are not corrected for it. Also given: how often the same scFv was detected with the empty control strains, with their mean in brackets.

CDR-H1	CDR-H2	CDR-H3	replicates, log10 nM	empty controls
GYTLNEYGIS	VIYSDGRRTFYTDSVK	GRFAGTFDS	nd nd nd nd nd nd	0 of 18
GFPLNSYGIS	VIYSDGRRTFYDDSVK	GQLAGTFDS	1.01 1.06 0.66 1.24 0.36 1.75	0 of 18
GFTLNSYGIS	VIYSDGRRTFYSDSVK	GRAGGKFDS	nd nd nd nd nd nd	0 of 18
GFTLNSYGIS	VIYSDGRRTFYDDSVK	GQLAGTFDV	0.86 0.17 0.53 0.46 1.22 0.86	0 of 18
GFTLNEYGIS	VIYSDGWRTFYTDSVK	GRFAGTFDS	0.96 1.47 0.59 1.12 1.66 1.08	0 of 18
GFTLNQYGIS	VIYSDGQRTFYSDSVK	GRAAGKFDS	nd nd nd nd nd nd	0 of 18
GFTLQSYGIS	VIYSDGRRTFYDDSVK	GQLAGTFDS	2.34 0.71 1.10 1.63 0.83 nd	1 of 18 (2.51)
GFTLDSYGIS	VIYSDGRRTFYSDSVK	GRAAGTFDS	0.59 0.84 0.33 0.43 0.56 0.55	0 of 18
GFTLNEYGIS	VIYSDGRRTFYTDSVK	GRFAGTFDT	0.58 0.85 0.20 0.41 0.45 0.63	0 of 18
GFTLNSYGIS	VIYSDGRRTFYDDSVK	GVLAGTFDS	0.53 0.25 1.01 0.91 0.08 0.83	0 of 18
GFTLNDYGIS	VIYSDGRRTFYHDSVK	GRAAGTFKS	nd 2.55 nd nd nd 3.47	1 of 18 (2.65)
GFDLNSYGIS	VIYSDGRRTFYVDSVK	GSAAGTFDS	-0.44 -0.54 -0.33 -0.60 -0.68 -0.53	0 of 18
GFDLNSYGIS	VIYSDGRRTFYGDSVK	GRAAGTFNV	nd 1.21 1.25 nd 2.05 1.61	0 of 18
GFTLNQYGIS	VIYSDGRRTFYGDSVK	GRAAVTFDQ	nd nd nd nd nd nd	0 of 18
GFSLNSYGIS	VIYSDGRRTFYDDSVK	GWVAGTFDS	nd nd nd nd nd nd	0 of 18
GFTLNEYGIS	VIYSDGRRTFYSDSVK	GRAAGHFDS	0.03 -0.32 -0.25 -0.17 -0.31 -0.18	0 of 18
GFTLNSYGIS	VIYSDGRRWFYDDSVK	GQLAGTFDS	nd nd nd nd nd nd	1 of 18 (1.15)
GFTLNEYGIS	VIYSDGRRTFYGDSVK	GRAAGTFET	1.28 0.93 0.36 1.08 0.17 0.62	0 of 18
GFTLNEYGIS	VIYSDGRRAFYTDSVK	GRFAGTFDS	0.86 0.82 0.65 1.03 0.86 0.70	2 of 18 (2.46)
GFDLNSYGIS	VIYSDGRRTFYGDSVK	GRTAGAFNS	nd nd nd nd 3.39 nd	0 of 18
GFTLNDYGIS	VIYSDGIRTFYGDSVK	GRTAGTFIS	3.74 nd nd nd nd nd	2 of 18 (2.09)
GFTLNEYGIS	VIYSDGRRTFYTDSVK	GEGAGTFDS	nd 0.83 nd 1.05 nd nd	0 of 18
GFCLNSYGIS	VIYSDGRRTFYDDSVK	GQLAGTFDS	nd 2.52 nd nd 4.40 2.36	1 of 18 (3.58)
GFTLNEYGIS	VIYSDGRRTFYTDSVK	GREAGTFDT	1.07 0.90 0.38 -0.22 0.25 1.26	0 of 18
GFTLNEYGIS	VIYSDGRRTFYGDSVK	GRVAVTFDQ	nd nd nd nd nd nd	0 of 18
GFTLNQYGIS	VIYSDGMRTFYSDSVK	GRTAGTFDS	0.38 0.36 0.43 -0.17 0.05 0.06	0 of 18
GFTLNEYGIS	VIYSDGRRTFYGDSVK	GRAALTFDT	nd nd nd nd nd nd	0 of 18
GFTLNDYGIS	VIYSDGRRTEYSDSVK	GRAAGTFDS	1.21 1.48 1.83 2.13 1.33 1.82	2 of 18 (2.74)
GFTLNQYGIS	VIYSDGRRTFYADSVK	GRAAGTFVS	nd nd nd nd nd nd	0 of 18
GFDLNSYGIS	VIYSDGRRTFYGDSVK	GRAAGCFWS	nd nd nd nd nd nd	0 of 18
GMTLNEYGIS	VIYSDGRRTFYTDSVK	GRFAGTFDS	0.30 -0.18 -0.34 -0.66 -0.32 -0.03	1 of 18 (1.70)
GFTLNEYGIS	VIYSDGRRTVYGDSVK	GRAAGTFDQ	nd 1.87 nd 0.56 nd 0.59	0 of 18
GFELNEYGIS	VIYSDGRRTFYTDSVK	GRFAGTFDS	0.70 0.83 0.30 1.47 0.34 1.38	0 of 18
GFNLNEYGIS	VIYSDGRRTFYTDSVK	GRHAGTFDS	1.24 0.79 0.98 0.98 1.35 1.34	1 of 18 (3.10)
GFTLNQYGIS	VIYSDGRRTAYADSVK	GRAAGTFDS	0.18 0.55 0.00 0.35 0.13 -0.08	0 of 18
GFTLNDYGIS	VIYSDGRRTFYIDSVK	GRAAGTFDK	nd 1.02 1.66 1.35 0.72 1.81	0 of 18
GFTLNEYGIS	VIYSDGRRTFYGDSVK	GRVAGTFDG	0.36 0.40 1.39 0.90 0.41 1.48	1 of 18 (1.77)
GFTLNDYGIS	VIYSDGRRTSYIDSVK	GRAAGTFDS	0.40 0.32 0.34 -0.13 0.09 0.10	1 of 18 (1.78)
GFTLDSYGIS	VIYADGRRTFYGDSVK	GRAAGTFKS	-1.36 0.23 -0.96 -0.72 -0.89 1.93	0 of 18
KFNLNEYGIS	VIYSDGRRTFYTDSVK	GRFAGTFDS	1.49 nd 2.00 2.71 2.90 1.18	2 of 18 (2.38)
GFTLNSYGIS	VIYSDGHRTFYDDSVK	GQVAGTFDS	0.70 1.53 1.67 0.73 0.92 0.67	1 of 18 (1.99)
GFTLNDYGIS	VIYSDGRRTFYGDSVK	GRIAGTFDK	nd 0.42 1.41 0.77 -0.04 1.95	0 of 18
GFTLNDYGIS	VIYSDGRRTFYGDSVK	GRAAGTFHK	nd nd nd nd nd nd	0 of 18
GFTLNEYGIS	VIYSDGRRTFYSDSVK	GRAAGIFDS	nd nd nd nd nd nd	0 of 18
GFTLNDYGIS	VIYSDGRRTFYGDSVK	GRTAGTFSS	0.33 0.78 1.46 0.27 1.09 0.64	1 of 18 (1.87)

The 6 strongest on average among those seen in every replicate, once more:

CDR-H1	CDR-H2	CDR-H3	replicates, log10 nM	empty controls
GFDLNSYGIS	VIYSDGRRTFYVDSVK	GSAAGTFDS	-0.44 -0.54 -0.33 -0.60 -0.68 -0.53	0 of 18
GFTLDSYGIS	VIYADGRRTFYGDSVK	GRAAGTFKS	-1.36 0.23 -0.96 -0.72 -0.89 1.93	0 of 18
GMTLNEYGIS	VIYSDGRRTFYTDSVK	GRFAGTFDS	0.30 -0.18 -0.34 -0.66 -0.32 -0.03	1 of 18 (1.70)
GFTLNEYGIS	VIYSDGRRTFYSDSVK	GRAAGHFDS	0.03 -0.32 -0.25 -0.17 -0.31 -0.18	0 of 18
GFTLNQYGIS	VIYSDGMRTFYSDSVK	GRTAGTFDS	0.38 0.36 0.43 -0.17 0.05 0.06	0 of 18
GFTLNDYGIS	VIYSDGRRTSYIDSVK	GRAAGTFDS	0.40 0.32 0.34 -0.13 0.09 0.10	1 of 18 (1.78)

The authors averaged sequences with at least three values out of six and counted those with two or fewer as poor binders.
The range of this assay differs from that of the first round, and the authors advise against merging the two.
The parent sequence was in this pool as ten entries: three were never detected, three once, and four in most replicates, with averages from 0.34 to 2.37.

Values reported by Li et al. 2023, doi:10.1038/s41467-023-39022-2 (FLAb copy).